Assay results published in ChEMBL document CHEMBL5108065, “Discovery and Characterization of Potent, Efficacious, Orally Available Antimalarial Plasmepsin X Inhibitors and Preclinical Safety Assessment of UCB7362” (J Med Chem, 2022).

How the values were obtained:
in vitro [1] = conditions: mouse, whole blood
in vitro [2] = conditions: human, whole blood
in vitro [3] = conditions: rat, whole blood
in vitro [4] = conditions: dog, whole blood

`C[C@H]1C[C@@H](N2C(=N)N[C@](C)(c3cccc(NC(=O)c4cccc(C#N)c4)c3Cl)CC2=O)CCO1` showed a blood plasma ratio (in vitro [1]) of 1.2, a blood plasma ratio (in vitro [2]) of 0.97 and a blood plasma ratio (in vitro [3]) of 1.16. The blood plasma ratio (in vitro [4]) was 1.18.
